# In PubChem BioAssay AID738 (SRMLSC, 2007):
# This is a selection; strong and weak results do not stand in their true shares. Active and inactive are the calls of the source. Cut-off read from the data, not from the text of the source: active = inhibition above about 30%; inactive = the rest.
# Assay: yeast control strain growth suppression – counter-screen for post-Golgi transport modulator project, primary screen (AID 738)
# Settings: efflux-deficient yeast background strain, growth absorbance A615, 16 h; at 10 µM; stronger effect = higher value
row,Compound,inhibition
1,COP1(=S)c2c(C)nn(CCC#N)c2N=C(c2ccc(F)cc2)N1C (stereo not given),inactive: -1.4%
2,O=C(COc1ccccc1)OC1CN2CCC1CC2 (stereo not given),inactive: 8.94%
3,O=C(OC1CN2CCC1CC2)C12CC3CC(CC(C3)C1)C2 (stereo not given),inactive: 0%
4,CCN(CC)C(=S)SC(NC=O)C(Cl)(Cl)Cl (stereo not given),inactive: 1.25%
5,CCOP1(=S)c2c(C)nn(CCC#N)c2N=C(c2ccccc2F)N1C (stereo not given),inactive: 5.43%
6,O=P(Nc1nccs1)(c1ccccc1)c1nc2ccccc2s1 (stereo not given),inactive: 3.84%
7,CCOP1(=S)c2c(C)nn(CCC#N)c2N=C(c2ccc(F)cc2)N1C (stereo not given),inactive: 2.91%
8,O=[N+]([O-])c1ccc2c(c1)nnn2O,inactive: -3.15%
9,Cc1cccc(OCC(=O)OC2CN3CCC2CC3)c1 (stereo not given),inactive: 0.14%
10,O=P1(Nc2ccccn2)COc2ccccc2OC1,inactive: 1.82%
11,Clc1n[nH]nc1-c1nn[nH][15n]1,inactive: 0.76%
12,Cc1nn(-c2ccccc2)c2c1P(=O)(N1CCOCC1)N(C)C(c1ccccc1)=N2 (stereo not given),inactive: -0.34%
13,O=P1(Nc2ncccn2)COc2ccccc2OC1,inactive: 3.83%
14,Cc1ccc(OCC(=O)OC2CN3CCC2CC3)cc1 (stereo not given),inactive: 9.01%
15,O=P1(Nc2ccc(Br)cn2)COc2ccccc2OC1,inactive: 1.96%
16,O=C(OC1CN2CCC1CC2)c1cccc(Cl)c1 (stereo not given),inactive: 12.4%
17,O=P(Nc1nccs1)(c1ccccc1)c1ccccc1,inactive: 1.4%
18,c1nnnn1CCn1cnnn1,inactive: 8.54%
19,O=P1(Nc2nc3ccc(Cl)cc3s2)COc2ccccc2O1 (stereo not given),inactive: -12.4%
20,CCOC(=O)NC(Sc1ccccc1)C(Cl)(Cl)Cl (stereo not given),inactive: -15.6%
21,CCC(=O)N1C2C3N(C(=O)CC)C1C1N(C(=O)CC)C(C(N1C(=O)CC)N3C(=O)CC)N2C(=O)CC,inactive: -7.15%
22,COC(=O)c1cc2c(s1)N=C(c1ccccc1)N(C)P2(=O)N1CCOCC1 (stereo not given),inactive: 1.07%
23,CCOP(=O)(Nc1ccccc1)OCC,inactive: 6.56%
24,Oc1ccccc1CNc1ccccn1,inactive: 6.52%
25,Cc1c2non([O-])c-2c(C)[n+](=O)[n+]1[O-],inactive: -0.97%
26,CC(C)CC(=O)NC(Sc1ccc(Cl)cc1)C(Cl)(Cl)Cl (stereo not given),inactive: 8.29%
27,CCc1nc2c(n1)c1c(non1O)c1c2no[n+]1[O-],inactive: -2.56%
28,CC(=O)N1C2C3N(C(C)=O)C1C1N(C(C)=O)C(C(N1C(C)=O)N3C(C)=O)N2C(C)=O,inactive: 6.54%
29,O=[N+]([O-])c1cccc2n[nH]nc12,inactive: 9.19%
30,CC1CCN(C(=O)Oc2c(Cl)cc(Cl)c3cccnc23)CC1,active: 32.3%
